Test results: PubChem BioAssay AID2451 (National Center for Advancing Translational Sciences (NCATS), 2010)
The list shows a part of the results, in another mix than the full data. Results filed as inconclusive are left out. Calls of active or inactive are those of the source. Calls come from the whole dose curve; as a rule, active = well fitted inhibition curve with a large enough effect; inconclusive = small, poorly fitted or top-dose-only effect, or effect the other way; inactive = flat fitted curve, though single readings scatter.
% is set by controls: 0 for no effect and ±100 for the full control effect.
Note: nearly all actives have a fitted effect of over 55% in size.

By UniProt entry, the sequences of proteins in these tests, tags left out.
UniProt A8B2U2, whole entry: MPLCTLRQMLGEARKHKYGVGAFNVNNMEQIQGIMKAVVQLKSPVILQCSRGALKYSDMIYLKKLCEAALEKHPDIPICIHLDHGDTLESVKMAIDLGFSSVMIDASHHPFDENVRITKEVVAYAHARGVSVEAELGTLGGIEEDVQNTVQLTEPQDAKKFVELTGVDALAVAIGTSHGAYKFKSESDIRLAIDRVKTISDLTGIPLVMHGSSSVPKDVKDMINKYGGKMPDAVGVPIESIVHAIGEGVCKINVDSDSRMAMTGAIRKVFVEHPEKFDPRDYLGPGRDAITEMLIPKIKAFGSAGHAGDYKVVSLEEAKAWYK

Each molecule was assayed against Fructose-bisphosphate aldolase (Giardia intestinalis (strain ATCC 50803 / WB clone C6)) (UniProt A8B2U2) (assay: qHTS Assay for Inhibitors of Fructose-1,6-bisphosphate Aldolase from Giardia Lamblia). Settings: purified Giardia FBPA; at 59.6 µM (top of the series).
In the case of CN(CCCl)CCCl, the activity, negative = inhibition is reported as inactive: -0.755%.
